Measurements reported in PMC4656118 (Journal of biomolecular screening, 2014).
Values joined by “and” are separate entries in the source; they are usually repeats but may differ in a detail not shown here. Identical values can stand only once. Like-named read-outs stand apart in the source and are kept apart here.

Columns and labels:
[1] = target: purified chicken nucleosomes (from chicken erythrocytes) (chicken (endogenous in erythrocytes)); experiment: fluorescence polarisation
[2] = target: trypsin digested nucleosomes lacking histone tails (chicken (endogenous in erythrocytes)); experiment: fluorescence polarisation
[3] = target: purified chicken nucleosomes (from chicken erythrocytes) (chicken (endogenous in erythrocytes)); experiment: fluorescence polarisation; remark: listed apart in the source
[4] = tested on: FITC-LANA 1-23 peptide (tracer) (Kaposi's sarcoma-associated herpesvirus); experiment: fluorescence anisotropy
[5] = target: purified chicken nucleosomes (histone H2A/H2B binding site)
[6] = tested on: FITC-LANA 1-23 peptide (tracer) (Kaposi's sarcoma-associated herpesvirus); experiment: fluorescence anisotropy; remark: listed apart in the source

In the case of FITC LANA1-23 peptide tracer, the Kd [1] is reported as 246 nM and 283 nM, the Kd [2] is reported as 260 nM and the Kd [3] is reported as 184 nM.
With “chicken nucleosomes, trypsin inactivated (inhibitor added first)” the Kd [4] was 283 nM.
With “[FITC]-Beta alanine-MAPPGMRLRSGRSTGAPLTRGSC-[NH2] [FITC LANA1-23]” the Kd ([5]; read-out: Kd for LANA peptide binding after trypsin digestion of nucleosomes) was 260 nM, the Kd ([5]; read-out: Kd for LANA peptide binding when protease inhibitor was added prior to trypsin) was 283 nM and the Kd ([5]; read-out: Kd for LANA tracer binding to intact nucleosomes) was 246 nM. The Kd ([5]; read-out: Kd for N-LANA peptide binding to its histone H2A/H2B binding site) was 184 nM.
Work on “chicken nucleosomes, trypsin-digested (histone tails removed)” yielded a Kd ([4]; histone tails removed by partial trypsin digestion, DNA not modified) of 260 nM.
Substance chicken erythrocyte nucleosomes, intact has a Kd [4] of 246 nM and a Kd [6] of 184 nM.
